# According to publication PMC10962654 (Journal of Food and Drug Analysis, 2023):
compound,measurement,setting,value
"C[C@@H]1O[C@@H](OC[C@H]2O[C@@H](Oc3c(-c4ccc(O)c(O)c4)oc4cc(O)cc(O)c4c3=O)[C@H](O)[C@@H](O)[C@@H]2O)[C@H](O)[C@H](O)[C@H]1O [Rutin, rutin]",V2,"GHI-L (GHI 2.5 mL/kg, i.v.), MI/R rats, plasma, n = 6",1.671 ± 0.12 L/kg
CC(=O)N[C@@H](CCC(N)=O)C(=O)O [N-acetyl-L-glutamine],CL1,"rat, in vivo, iv",18.88 ± 2.03 mL/min/kg
